Data: patent US20190154879A1, “Silicone Hydrogel Contact Lenses Having Improved Lubricity” (CooperVision International Holding Company, LP, priority 2016, published 2019)

Test: Hydrophilic-lipophilic balance (HLB) value
Assay type: physicochemical
Settings: calculated as twenty times molecular weight of hydrophilic portion divided by total molecular weight

Substance: D-a-Tocopheryl polyethylene glycol 1000 succinate
- HLB value: about 13
